Results as given in patent publication US20100222309A1, “SKIN PROPERTY-IMPROVING THERAPEUTIC AGENT COMPRISING A MORPHINAN DERIVATIVE OR ANY OF ITS PHARMACOLOGICALLY PERMISSIBLE ACID ADDITION SALTS AS AN ACTIVE INGREDIENT” (TORAY INDUSTRIES, INC., priority 2007, published 2010).

Tested on: itch patients treated with hemodialysis
Assay: Oral administration of compound 1 soft capsules to itch patients treated with hemodialysis; skin properties and itching observed
Settings: two capsules (5.0 μg) oral, after start of administration

**Q.** What does the source list for `CN(C(=O)/C=C/c1ccoc1)[C@@H]1CC[C@@]2(O)[C@H]3Cc4ccc(O)c5c4[C@@]2(CCN3CC2CC2)[C@H]1O5.Cl` [compound 1]?
**A.** skin property (smoothness) (patient one): became smoother on the skin in general (especially legs), to have beautiful skin; skin property (dryness of face, complexion) (patient two): became less dry on the face and gained good complexion
